Test results reported in ChEMBL document CHEMBL4680235, “Structure-based discovery of novel 4-(2-fluorophenoxy)quinoline derivatives as c-Met inhibitors using isocyanide-involved multicomponent reactions” (Eur J Med Chem, 2020).

Experiments:
[1] = species on record: Homo sapiens; test: Selectivity ratio of IC50 for inhibition of VEGFR2 (unknown origin) to IC50 for inhibition of c-MET (unknown origin)
[2] = species on record: Homo sapiens; test: Selectivity ratio of IC50 for inhibition of Flt4 (unknown origin) to IC50 for inhibition of c-MET (unknown origin)

COc1cc2nccc(Oc3ccc(NC(=O)C(OC(=O)c4ccc(F)cc4)C(C)(C)C)cc3F)c2cc1OC (racemic)
Ratio IC50 [1]: 121 | Ratio IC50 [2]: 222
